From patent US20250163038A1, “CBL-B MODULATORS AND USES THEREOF” (Nimbus Clio, Inc., priority 2021, published 2025)
pEC50, pIC50: −log10 of the molar value.

The chains behind the UniProt entries cited, without tags or fusion partners. Residues count along the entry.
UniProt Q13191, 36-427 limits assumed: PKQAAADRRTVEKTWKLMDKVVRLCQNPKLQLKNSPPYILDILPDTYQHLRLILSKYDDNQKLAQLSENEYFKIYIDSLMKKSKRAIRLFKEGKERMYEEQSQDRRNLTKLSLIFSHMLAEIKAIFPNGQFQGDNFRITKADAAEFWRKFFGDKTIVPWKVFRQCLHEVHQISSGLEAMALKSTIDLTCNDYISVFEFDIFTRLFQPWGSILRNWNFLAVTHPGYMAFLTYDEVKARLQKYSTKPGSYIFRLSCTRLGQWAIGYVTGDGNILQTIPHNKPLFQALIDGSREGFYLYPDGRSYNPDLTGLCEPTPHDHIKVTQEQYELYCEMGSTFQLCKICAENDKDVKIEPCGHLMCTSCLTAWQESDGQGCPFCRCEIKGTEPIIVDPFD
UniProt P22681, 47-435 limits assumed: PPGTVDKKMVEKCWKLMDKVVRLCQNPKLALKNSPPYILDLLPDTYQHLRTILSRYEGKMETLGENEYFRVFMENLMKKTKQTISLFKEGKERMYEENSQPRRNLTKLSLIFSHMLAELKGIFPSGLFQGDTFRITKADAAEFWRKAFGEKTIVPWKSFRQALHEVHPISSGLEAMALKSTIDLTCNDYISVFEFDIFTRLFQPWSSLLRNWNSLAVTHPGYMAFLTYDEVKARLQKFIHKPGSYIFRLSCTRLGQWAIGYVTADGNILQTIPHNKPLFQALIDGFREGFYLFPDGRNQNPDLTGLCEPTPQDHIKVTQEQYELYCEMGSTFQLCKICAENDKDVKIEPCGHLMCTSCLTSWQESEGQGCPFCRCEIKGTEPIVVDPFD

Experiments:
[1] = biological target: Recombinant human Cbl-b (aa 36-427) (Homo sapiens, UniProt Q13191); assay: Cbl-b Biochemical Assay (TR-FRET); conditions: read-out: TR-FRET hCbl-b IC50
[2] = system: Jurkat (clone E6-1) cells with NFAT luciferase reporter; assay: Jurkat reporter assay (NFAT Luciferase); format: cell-based; conditions: read-out: Jurkat NFAT EC50, anti-CD3 stimulation, 6 hr
[3] = biological target: Recombinant human c-Cbl (aa 47-435) (Homo sapiens, UniProt P22681); assay: c-Cbl Biochemical Assay (TR-FRET); conditions: read-out: TR-FRET hcCbl IC50; hc-Cbl Biochemical Assay (TR-FRET)

SMILES	pIC50 [1]	pEC50 [2]	pIC50 [3]
COCCOCCNCc1cc(C(F)(F)F)c2oc(-c3cccc(-c4ccc(F)cc4-c4nncn4C)c3)nc2c1	> 6.70	5.00 to 6.00	6.00 to 6.70
COc1ccc([N+](=O)[O-])c(N)c1C(F)(F)F	4.30 to 5.00		4.30 to 5.00
